From ChEMBL document CHEMBL5614429, “Development of Tailless Homologue Receptor (TLX) Agonist Chemical Tools” (J Med Chem, 2024)
Calls of active or inactive are those of the source. The calls are words filed in the database; no cut-off is given here.

Target: T1, Nuclear receptor ROR-alpha (Homo sapiens) (UniProt P35398)
T1 sequence (whole entry): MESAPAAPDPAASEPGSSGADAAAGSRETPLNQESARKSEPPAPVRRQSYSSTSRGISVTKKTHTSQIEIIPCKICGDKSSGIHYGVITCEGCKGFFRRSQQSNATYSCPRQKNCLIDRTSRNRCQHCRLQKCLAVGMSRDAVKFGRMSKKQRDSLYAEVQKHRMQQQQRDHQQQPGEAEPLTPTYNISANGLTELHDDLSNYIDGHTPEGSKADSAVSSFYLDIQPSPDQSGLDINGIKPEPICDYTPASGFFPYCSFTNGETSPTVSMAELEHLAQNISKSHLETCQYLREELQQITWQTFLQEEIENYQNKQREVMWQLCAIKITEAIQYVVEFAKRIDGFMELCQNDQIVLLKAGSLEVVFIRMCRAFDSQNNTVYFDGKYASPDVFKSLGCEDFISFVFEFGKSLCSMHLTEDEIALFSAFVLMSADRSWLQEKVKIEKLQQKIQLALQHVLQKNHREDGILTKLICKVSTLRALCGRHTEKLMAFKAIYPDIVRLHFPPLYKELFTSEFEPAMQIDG
Assay type: cell-based
Conditions: HEK293T, dose 3.0 µM

inhibition: Active
SMILES: Cc1cc(-c2cc(NC(=O)Cc3ccccc3Cl)cc(C(F)(F)F)c2)ccn1
